Bioassay records from PubChem BioAssay.
Giardia killer: kills Giardia lamblia; Giardia lamblia trophozoite viability; activity change, % at 7.66 µM, hits read low; hit rate 0.15% among 340,000; in the data active = activity change below about -80%; inconclusive = between about -30% and that limit;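 note: parasites exposed to compound for two days anaerobically before the ATP read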
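Each well holds 100 Giardia trophozoites and compound. After two days (48 hrs) at 37 deg C in anaerobic conditions, ATP is quantified by luminescence.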
uPA surface inh: inhibitors of cell surface uPA generation; hit rate 0.31% among 330,000; AID 540303; cell surface uPA generation assay, qHTS; Potency, µM (doses to about 38.3 µM), most hits filed as inhibitors; active = well fitted inhibition curve with a large enough effect; inconclusive = small, poorly fitted or top-dose-only effect; inactive = no such curve, though single readings can be large or run the other way; tested in mouse RAW 264.7 cells; note: nearly all actives have a fitted effect of over 55% in size
FBPA coupling cs: coupling enzyme interference in Giardia aldolase counter-screen; coupling enzyme system counterscreen, AmpLite Red fluorescence; activity change, negative = inhibition, % at 58.2 µM, hits read low; hit rate 0.67% among 290,000; AID 2472; in the data active = activity change below about -30%
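First, compound is pin-transferred into glyceraldehyde-3-phosphate coupling-enzyme reagent at 57.5 uM final and held 10 min at RT. Next, substrate, coupling system and AmpLite Red are added. After 20 min RT, fluorescence (525/598 nm) is read.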
GALK inhibitor: inhibitors of human galactokinase | P51570 | hit rate 0.007% among 270,000 | Purified GALK, Kinase-Glo residual ATP luminescence | Potency, µM (doses to about 57.5 µM), actives largely listed as inhibitors
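Kinase-Glo Plus luminescence measured ATP left after a 1 h room-temperature reaction. The reaction used 5 nM GALK, 100 uM galactose and 35 uM ATP at pH 8.0 (20 mM HEPES, 5 mM MgCl2, 60 mM NaCl, 1 mM DTT, 0.01% BSA).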
miR-21 reporter: raises the signal of a miR-21 reporter. Potency, µM (highest dose often 38.3 µM). 340,000 tested, under 10 active. HeLa miR-21 FLuc reporter, luciferase, 48 h; active = well fitted rising curve with a large enough effect; inconclusive = small, poorly fitted or top-dose-only effect; inactive = no such curve, though single readings can be large or run the other way;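 further: miR-21 action dims this reporter so a rising signal means less miR-21 action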
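HeLa cells endogenously expressing miR-21, stably carrying CMV-driven firefly luciferase with a downstream miR-21 binding site, 2000 cells/well. Titrations up to approximately 40 uM, 48 hours; luciferase luminescence read.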
B2AR arrestin: agonists driving beta-arrestin recruitment to human beta2-adrenergic receptor; P07550; beta-arrestin recruitment to beta2AR, cell-based reporter; Potency, µM (top dose mostly 46.1 µM), hits mostly activators; hit rate 0.02% among 330,000; AID 492947; note: nearly all actives have a fitted effect of over 65% in size
Numbers stand for hits; . = inactive; ? = inconclusive; / = not tested or not shown. Shown are actives, neighbours in structure and some others; about 0.92% of the full set was active somewhere. Unless noted, calls come from the whole dose curve; as a rule, active = well fitted curve in the direction sought with a large enough effect; inconclusive = small, poorly fitted or top-dose-only effect, or another doubt; inactive = no such curve, though single readings can be large; an effect the other way counts as inactive or inconclusive.

SMILES	Giardia killer	uPA surface inh	FBPA coupling cs	GALK inhibitor	miR-21 reporter	B2AR arrestin
Nc1nn(-c2ccccc2)c(N)c1N=Nc1ccccc1	.	5µM	.	.	.	.
C#C[C@]1(O)CC[C@H]2[C@H]3CCc4cc(O)ccc4[C@@H]3CC[C@@]21C	/	/	.	/	/	/
COc1ccc(C(=O)/C(C#N)=N/Nc2ccc([N+](=O)[O-])cc2)cc1	?	1µM	.	.	.	.
COc1ccc(C(=O)/C(C#N)=N/Nc2ccccc2[N+](=O)[O-])cc1	.	.	.	.	.	.
COc1cc(C(=O)ON=C2C=C(C)C(=O)C(C)=C2)cc(OC)c1OC	.	.	.	.	.	.
COc1cc(C(=O)O/N=C2\C=CC(=O)C(C)=C2)cc(OC)c1OC	.	.	-82	.	.	.
CCCCNc1nc2c(S(=O)(=O)c3ccc(C)cc3)nnn2c2ccsc12	/	/	/	/	.	/
Cc1ccc(S(=O)(=O)Nc2cccc3ccc(C)nc23)cc1	/	/	.	/	/	/
COc1ccccc1N1C(=O)N(C(C)=O)C2C1Nc1ccccc1N2C (stereo unspecified)	.	.	-40	.	.	.
O=C(NCCS(=O)(=O)N1CCN(c2ccccc2F)CC1)c1ccccc1C(F)(F)F	/	/	/	/	.	/
CCOC(=O)C(C)NC(=O)C1CCN(c2ncnc3c2nc2n3CCCCC2)CC1 (stereo unspecified)	/	/	/	/	.	/
O=C(NCc1ccco1)c1ccc2c(c1)N(Cc1ccc(F)cc1)C(=O)c1ccccc1S2=O (stereo unspecified)	/	/	/	/	.	/
Cc1nnc(N/N=C/c2ccccc2F)n1N	.	.	.	/	.	.
Cc1nnc(N/N=C/c2ccco2)n1N	.	.	-42	.	.	.
O=c1oc2cc(O)ccc2cc1-c1nc2c(s1)CCc1ccccc1-2	.	.	.	.	.	.
O=c1oc2ccccc2cc1-c1nc2c(s1)CCc1ccccc1-2	.	.	-81	.	.	.
N#Cc1c(N2CCCC2)nc(N)c2c(N)nc(N3CCCC3)cc12	.	.	-36	?	.	.
CCOc1cc2c(C#N)c(N3CCCC3)nc(N)c2c(N)n1	.	.	/	/	/	/
COc1cc2c(C#N)c(N3CCCC3)nc(N)c2c(N)n1	.	.	-31	.	.	.
COc1cc2c(C#N)c(N3CCN(c4ccccc4OC)CC3)nc(N)c2c(N)n1	.	.	-52	.	.	.
O=C(O)c1ccccc1NC(=O)N1c2ccccc2Sc2ccccc21	/	/	/	/	.	/
COc1ccc(N2CCN(S(=O)(=O)c3ccc(F)c(C(=O)Nc4ccccc4Cl)c3)CC2)cc1	/	/	/	/	.	/
Cc1ccc(CNS(=O)(=O)c2c(C)nc3sc(C)cn3c2=O)cc1	/	/	/	/	.	/
Cc1ccc(/C=[N+](\[O-])c2ccc(N(C)C)cc2)c2nsnc12	.	.	-41	.	.	.
Cc1ccc2nsnc2c1NS(=O)(=O)c1c(C)ccc2nsnc12	.	.	.	.	.	.
SMILES	Giardia killer	uPA surface inh	FBPA coupling cs	GALK inhibitor	miR-21 reporter	B2AR arrestin
c1cc(CNc2ccc3c(c2)OCO3)ccn1	.	.	.	.	.	.
Cc1ccc(CNc2ccc3c(c2)OCO3)cc1	.	/	-37	.	.	/
Cn1c(/C=C/c2ccccc2)nc2ccccc21	?	4µM	.	.	.	.
CN(C)c1oc(-c2ccccc2[N+](=O)[O-])nc1C#N	.	.	-30	.	.	.
OCC[n+]1ccc(/C=C/c2c[nH]c3ccccc23)cc1	.	.	-48	.	.	.
C=CC(=O)Oc1ccc(N2Cc3ccccc3C2=O)cc1	.	5µM	/	/	/	/
Cc1ccc(N2Cc3ccccc3C2=O)cc1	?	8.9µM	.	.	.	.
Cc1cccc(C)c1NC(=O)Cn1cc(S(=O)(=O)Cc2ccc(F)cc2)c2ccccc21	/	/	/	/	.	/
CC(C)c1ccc(CN2CCN(C(=O)CCl)CC2)cc1	.	3.5µM	.	.	?	.
CC(C)CC(=O)N1CCN(Cc2ccc(Cl)cc2)CC1	.	.	.	.	.	.
CC(=O)NC1=C(NC2CCS(=O)(=O)C2)C(=O)c2ccccc2C1=O (stereo unspecified)	.	?	-51	.	.	.
CCc1cccc(NCc2ccccc2-c2nnc(-c3ccccc3Cl)o2)c1	/	/	/	/	.	/
Cc1cccc(CCN2C(N(C)C)=NC[C@@H]2Cc2ccccc2)c1	.	10µM	/	/	/	.
CCN(c1cccc(C)c1)S(=O)(=O)c1nnc(NC(=O)c2ccccc2Cl)s1	/	/	/	/	.	/
O=C1[C@@H]2[C@H]3[C@H](O)[C@H](O)C/C(=N/OC[C@@H](O)COCc4ccco4)[C@H]3CC[C@H]2C(=O)N1c1ccc(F)cc1F	/	/	-30	/	/	/
O=C(Nc1cccnc1)c1ccco1	.	.	.	.	.	.
O=C(NCc1cccnc1)c1ccc([N+](=O)[O-])o1	-90	?	.	.	.	.
O=C(NCc1ccco1)NC(=O)c1csc([N+](=O)[O-])c1	-82	.	.	.	.	.
O=C(NCc1ccco1)c1ccc([N+](=O)[O-])o1	-81	.	.	.	.	.
O=C(Nc1cccnc1)c1ccc([N+](=O)[O-])o1	-86	?	.	.	.	.
Cc1cc2c(cc1S(=O)(=O)N(CCO)Cc1ccccc1)OCC(=O)N2	/	/	/	/	.	/
CCCCN1C(=O)CN(C2CCCCCC2)C(=O)C1c1ccc(OCCC)c(OC)c1 (stereo unspecified)	/	/	/	/	.	/
COc1cc2c(cc1OC)C(C)N(C(=O)c1c(-c3ccccc3)noc1C)CC2 (stereo unspecified)	.	6.3µM	.	.	.	.
CCNc1ccc(N=Nc2c(C)n(C)n(-c3ccccc3)c2=O)cc1	-98	.	.	.	.	.
CCC(C)C1=CC(=Nc2c(C)n(C)n(-c3ccccc3)c2=O)C=C(C(C)CC)C1=O (stereo unspecified)	.	.	.	.	.	.
SMILES	Giardia killer	uPA surface inh	FBPA coupling cs	GALK inhibitor	miR-21 reporter	B2AR arrestin
CC1=CC(=Nc2c(C)n(C)n(-c3ccccc3)c2=O)C=CC1=O	/	/	-46	.	.	.
CCOC(=O)/C(N=Nc1c(C)n(C)n(-c2ccccc2)c1=O)=C(\C)O	.	.	.	/	.	.
CC1=CC(=Nc2c(C)n(C)n(-c3ccccc3)c2=O)C=C(C)C1=O	.	.	-48	.	.	.
CC(C)CCNc1nc(Nc2ccccc2)c2cnn(C)c2n1	/	/	/	/	.	/
O=C1c2ccccc2C(=O)c2c1ncn2-c1ccccc1	.	.	-36	.	.	.
O=C1c2ccccc2C(=O)c2[nH]cnc21	?	?	.	.	.	.
C=CCN1c2ccccc2[C@]23C[C@@H](C(=O)OC)N(C(=O)c4cc(C)oc4C)C2=NC(C(=O)OC)=C(C(=O)OC)[C@H]13	.	5.6µM	.	.	?	.
CC#CCN1c2ccccc2[C@]23C[C@@H](C(=O)OC)N(C(=O)c4cc(C)oc4C)C2=NC(C(=O)OC)=C(C(=O)OC)[C@H]13	.	?	.	.	?	.
